Laboratory results from patent publication US20230322735A1, “AZETIDINYL TRYPTAMINES AND METHODS OF TREATING PSYCHIATRIC DISORDERS” (priority 2020, published 2023).

Amino acid sequences for entries named in this document (tags omitted).
UniProt P41595, whole entry: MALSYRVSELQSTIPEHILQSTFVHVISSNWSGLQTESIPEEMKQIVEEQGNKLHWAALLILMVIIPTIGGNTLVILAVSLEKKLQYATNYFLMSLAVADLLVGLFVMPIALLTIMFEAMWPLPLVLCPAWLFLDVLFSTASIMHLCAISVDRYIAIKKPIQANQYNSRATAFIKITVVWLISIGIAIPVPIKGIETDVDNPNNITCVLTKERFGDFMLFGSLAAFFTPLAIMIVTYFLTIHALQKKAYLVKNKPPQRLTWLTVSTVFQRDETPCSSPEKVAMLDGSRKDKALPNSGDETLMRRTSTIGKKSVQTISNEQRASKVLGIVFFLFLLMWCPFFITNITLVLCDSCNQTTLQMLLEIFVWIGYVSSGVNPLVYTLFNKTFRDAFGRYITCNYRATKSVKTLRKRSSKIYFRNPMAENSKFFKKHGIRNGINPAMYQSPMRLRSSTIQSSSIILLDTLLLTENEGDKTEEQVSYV

Target: T1, 5-HT2B receptor (Homo sapiens, UniProt P41595)
T1 construct: host or cells: HEK293
Experiment: FLIPR Ca2+ flux agonist assay at 5-HT2B (HEK293)
Assay type: cell-based

In the case of `CN(C)CCc1c[nH]c2cccc(O)c12` [Psilocin, psilocin, reference compound], the pEC50 was < 4.50.

pEC50: −log10 of the molar value.
